Source: paper PMC5799168, “Ubiquinone binding site of yeast NADH dehydrogenase revealed by structures binding novel competitive- and mixed-type inhibitors” (Scientific Reports, 2018)

Biological target: T1, Ndi1 (Saccharomyces cerevisiae, UniProt P32340)
T1 construct: The mature Ndi1, which lacks a mitochondrial targeting; (His)10; made in house; host or cells: E. coli BL21(DE3)pLysS, plasmid pET16b(NDI1-m)
T1 sequence (P32340 27-513): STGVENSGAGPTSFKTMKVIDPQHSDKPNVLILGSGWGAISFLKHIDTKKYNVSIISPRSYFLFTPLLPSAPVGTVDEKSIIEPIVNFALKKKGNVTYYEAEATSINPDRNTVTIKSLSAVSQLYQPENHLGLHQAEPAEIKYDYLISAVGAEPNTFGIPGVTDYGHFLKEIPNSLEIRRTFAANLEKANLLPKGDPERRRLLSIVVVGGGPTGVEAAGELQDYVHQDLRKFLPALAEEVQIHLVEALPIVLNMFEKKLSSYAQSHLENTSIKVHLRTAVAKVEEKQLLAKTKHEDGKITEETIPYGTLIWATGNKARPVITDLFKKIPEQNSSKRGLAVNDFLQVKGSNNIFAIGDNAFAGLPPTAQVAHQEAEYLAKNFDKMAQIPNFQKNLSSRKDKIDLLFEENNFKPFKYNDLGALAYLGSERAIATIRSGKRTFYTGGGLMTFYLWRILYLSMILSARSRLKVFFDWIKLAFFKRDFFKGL
Experiment: Inhibition of NADH-ubiquinone-1 oxidoreductase activity of the purified Ndi1
Assay type: biochemical
Description: NADH-ubiquinone oxidoreductase activity was measured as described previously. In brief, the reaction was started by adding 100 µM NADH to the enzyme mixture containing 10 ng/mL Ndi1, 50 mM sodium phosphate (pH 6.0) and 1 mM EDTA, which was pre-incubated with various concentrations of ubiquinone-1 for 1 min. […] The concentrations of inhibitors required to obtain the half-maximal inhibition (IC50) were estimated by non-linear regression dose-response curves. The inhibition mode of each inhibitor for ubiquinone-1 was determined by the intersection point in double-reciprocal plots (Fig. 2B–E). To objectively evaluate the inhibition mode, the data of the inhibition kinetics were fitted to the Eq.
This equation provides two dissociation constants, one for the binary enzyme-inhibitor complex (Ki), the other for the ternary enzyme-substrate-inhibitor complex (αKi).

`CO/C(=C/C(N)=O)[C@H](C)[C@H](/C=C/c1csc(-c2csc([C@@H](C)/C=C/C=C/C(C)C)n2)n1)OC` [Myxothiazol, myxothiazol] was tested, and the Inhibition mode (inhibition mode for ubiquinone-1, from intersection point in Lineweaver-Burk plots, 100 µM NADH) was “mixed” and the “α (α > 0)” value (α of mixed model inhibition fit (αKi = dissociation constant of ternary enzyme-substrate-inhibitor complex), mean ± S.D.) was 70.2±192.
